Data taken from patent US20190161480A1, “Chemical Compounds” (GLAXOSMITHKLINE INTELLECTUAL PROPERTY DEVELOPMENT LIMITED, priority 2016, published 2019).

Chains of the proteins cited; added tags and fusions are not shown. Lines headed by an entry give the natural chain unless they say otherwise; changes in a name come on top.
UniProt O00329: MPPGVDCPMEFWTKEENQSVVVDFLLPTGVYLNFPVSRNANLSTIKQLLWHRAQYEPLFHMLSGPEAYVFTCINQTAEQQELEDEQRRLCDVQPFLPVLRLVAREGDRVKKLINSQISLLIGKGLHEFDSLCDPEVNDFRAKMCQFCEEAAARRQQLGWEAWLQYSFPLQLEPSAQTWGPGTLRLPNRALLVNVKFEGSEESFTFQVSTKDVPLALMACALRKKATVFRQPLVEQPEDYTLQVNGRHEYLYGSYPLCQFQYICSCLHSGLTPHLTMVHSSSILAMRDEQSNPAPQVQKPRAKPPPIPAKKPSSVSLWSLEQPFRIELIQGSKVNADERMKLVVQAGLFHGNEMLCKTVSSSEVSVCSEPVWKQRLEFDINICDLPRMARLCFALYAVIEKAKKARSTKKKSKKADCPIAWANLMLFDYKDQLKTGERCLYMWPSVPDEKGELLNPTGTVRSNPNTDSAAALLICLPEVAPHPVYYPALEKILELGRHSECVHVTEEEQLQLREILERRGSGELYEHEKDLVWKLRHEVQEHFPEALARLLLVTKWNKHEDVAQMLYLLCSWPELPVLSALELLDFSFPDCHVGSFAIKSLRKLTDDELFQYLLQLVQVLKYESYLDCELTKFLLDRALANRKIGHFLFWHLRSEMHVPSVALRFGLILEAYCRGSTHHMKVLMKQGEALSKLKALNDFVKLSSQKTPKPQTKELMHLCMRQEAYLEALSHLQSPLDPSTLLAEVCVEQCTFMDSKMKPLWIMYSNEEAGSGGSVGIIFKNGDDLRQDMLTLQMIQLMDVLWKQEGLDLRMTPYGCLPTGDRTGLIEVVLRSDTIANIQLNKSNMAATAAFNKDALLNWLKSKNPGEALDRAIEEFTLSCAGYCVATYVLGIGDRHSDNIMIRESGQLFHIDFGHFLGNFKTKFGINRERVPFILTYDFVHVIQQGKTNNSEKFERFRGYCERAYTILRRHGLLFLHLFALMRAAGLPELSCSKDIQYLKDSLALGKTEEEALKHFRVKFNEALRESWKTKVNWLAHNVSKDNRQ

Target: PI3Kδ (Homo sapiens, UniProt O00329)
Test: PI3Kδ jump dilution experiment
Assay type: biochemical
Details: 15 min incubation, 100-fold dilution, read for 30 minutes
Procedure: Irreversibility of the PI3Kδ-Inhibitor complex, and reversibility of the non-covalent controls, was determined by jump-dilution assay as follows:
PI3Kδ enzyme was made up to a 100× assay concentration (final assay concentration=6 nM) in buffer solution (contains 50 mM HEPES pH 7.0 (NaOH), 150 mM NaCl, 10 mM MgCl2, 2.3 mM sodium cholate, 10 μM CHAPS made up in milliQ water).
100× enzyme solution was added to compound wells (20 μL/well), and incubated for 15 mins, after which point the assay was diluted 100-fold with commercially available ADP QUEST substrate solution, available from DiscoverX (calatog number: 90-0071), (3200 μL DiscoverX Reagent A, 6400 μL DiscoverX Reagent B, 1 mM ATP and 40 μM PIP2). Production of fluorescence signal was then measured immediately using a Tecan Safire II plate reader at 30 second intervals for 30 minutes (λex=544 nm, λem=590 nm).

In the case of `COC[C@H]1OC(=O)c2coc3c2[C@@]1(C)C1=C(C3=O)[C@@H]2CCC(=O)[C@@]2(C)C[C@H]1OC(C)=O` [Wortmannin, reference compound], the “Recovery of enzyme activity after jump dilution” value is reported as “no recovery of activity”.
